Molecular target: human androgen receptor (hAR) (Homo sapiens, UniProt P10275)
Test: Functional response test: hAR transactivation (luciferase reporter) in HALP2 cells
Type: cell-based
Details: for EC50: read-out: EC50 (nM) Kd, agonism, HALP2 cells (HeLa, hAR + ARE-luciferase), 20 hours at 37° C.

Protein sequences, listed by entry. Tags and fused reporters are not part of them.
UniProt P10275, whole entry: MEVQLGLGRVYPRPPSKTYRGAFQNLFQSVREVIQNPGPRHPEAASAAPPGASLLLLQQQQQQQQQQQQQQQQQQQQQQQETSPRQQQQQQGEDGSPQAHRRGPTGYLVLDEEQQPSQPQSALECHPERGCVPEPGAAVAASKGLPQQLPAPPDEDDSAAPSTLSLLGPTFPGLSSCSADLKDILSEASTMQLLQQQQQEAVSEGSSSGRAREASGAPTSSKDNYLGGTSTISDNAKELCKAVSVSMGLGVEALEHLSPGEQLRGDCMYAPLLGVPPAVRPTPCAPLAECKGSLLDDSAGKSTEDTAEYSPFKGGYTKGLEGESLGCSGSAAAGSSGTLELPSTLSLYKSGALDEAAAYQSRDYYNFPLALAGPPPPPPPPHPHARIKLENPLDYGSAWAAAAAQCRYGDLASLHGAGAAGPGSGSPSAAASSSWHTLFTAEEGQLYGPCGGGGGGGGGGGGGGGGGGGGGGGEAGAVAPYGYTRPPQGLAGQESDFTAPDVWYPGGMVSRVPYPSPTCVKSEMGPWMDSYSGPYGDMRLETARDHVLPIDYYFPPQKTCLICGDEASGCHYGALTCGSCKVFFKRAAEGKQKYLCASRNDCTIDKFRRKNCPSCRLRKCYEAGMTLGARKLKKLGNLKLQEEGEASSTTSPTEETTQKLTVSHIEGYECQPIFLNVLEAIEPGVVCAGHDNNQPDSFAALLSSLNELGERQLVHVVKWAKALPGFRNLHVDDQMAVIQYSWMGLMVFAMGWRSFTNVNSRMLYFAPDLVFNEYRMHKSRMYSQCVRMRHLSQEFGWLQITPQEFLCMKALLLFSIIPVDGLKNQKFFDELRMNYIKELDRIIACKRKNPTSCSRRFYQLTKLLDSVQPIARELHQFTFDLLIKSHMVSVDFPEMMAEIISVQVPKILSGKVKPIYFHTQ

| Structure (SMILES) | KSchild (nM) potency | EC50 |
| --- | --- | --- |
| O=C1C(c2ccc(O)cc2)N(Cc2ccsc2)C(=O)N1c1ccc(Cl)cc1Cl (stereo not shown) | 205.98 nM | 206 nM |
| CCCCC1(c2ccc(O)cc2)C(=O)N(c2ccc(C#N)c(C(F)(F)F)c2)C(=O)N1C (stereo not shown) | 15 nM | 15 nM |

Reference: patent publication US8168667B2 (Galapagos NV, priority 2006, dated 2012)
